Results on one compound are retold here after patent US20030073837A1, “3-HETEROARYLIDENYL-2-INDOLINONE COMPOUNDS FOR MODULATING PROTEIN KINASE ACTIVITY AND FOR USE IN CANCER CHEMOTHERAPY” (priority 1998, published 2003).

SMILES strings stand for the structures.

The data set in a line: Phase 1 study pharmacokinetics in patients with advanced malignancies. The following applies: doses 4.4-190 mg/m^2.

In the case of `Cc1cc(C)c(/C=C2\C(=O)Nc3ccccc32)[nH]1` [3-[(2,4-dimethylpyrrol-5-yl)methylidenyl]-2-indolinone], the “clearance from the systemic circulation, mean” value is 1857±1016 liters of plasma per day.
